A word on the Ki: it is the dissociation constant of the complex between target and ligand, obtained from inhibition or displacement. A low value points to higher affinity.

Protein sequences, listed by entry. Tags and fused reporters are not part of them.
UniProt P31645, whole entry: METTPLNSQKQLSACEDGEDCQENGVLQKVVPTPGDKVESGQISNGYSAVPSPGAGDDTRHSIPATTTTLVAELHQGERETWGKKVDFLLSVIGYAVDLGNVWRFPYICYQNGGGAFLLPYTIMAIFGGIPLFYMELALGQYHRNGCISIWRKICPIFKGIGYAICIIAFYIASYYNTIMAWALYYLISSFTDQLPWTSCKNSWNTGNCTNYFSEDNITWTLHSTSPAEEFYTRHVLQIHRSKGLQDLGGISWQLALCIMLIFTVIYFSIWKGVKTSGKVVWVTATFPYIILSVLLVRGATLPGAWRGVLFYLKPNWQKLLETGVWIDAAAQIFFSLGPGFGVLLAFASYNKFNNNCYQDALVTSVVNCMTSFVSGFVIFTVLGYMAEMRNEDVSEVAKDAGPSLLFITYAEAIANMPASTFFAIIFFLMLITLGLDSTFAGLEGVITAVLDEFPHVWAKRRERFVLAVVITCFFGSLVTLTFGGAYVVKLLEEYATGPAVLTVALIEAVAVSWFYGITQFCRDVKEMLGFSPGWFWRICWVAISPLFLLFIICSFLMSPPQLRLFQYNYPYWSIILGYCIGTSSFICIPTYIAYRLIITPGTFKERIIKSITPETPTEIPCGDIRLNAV
UniProt P23975, whole entry: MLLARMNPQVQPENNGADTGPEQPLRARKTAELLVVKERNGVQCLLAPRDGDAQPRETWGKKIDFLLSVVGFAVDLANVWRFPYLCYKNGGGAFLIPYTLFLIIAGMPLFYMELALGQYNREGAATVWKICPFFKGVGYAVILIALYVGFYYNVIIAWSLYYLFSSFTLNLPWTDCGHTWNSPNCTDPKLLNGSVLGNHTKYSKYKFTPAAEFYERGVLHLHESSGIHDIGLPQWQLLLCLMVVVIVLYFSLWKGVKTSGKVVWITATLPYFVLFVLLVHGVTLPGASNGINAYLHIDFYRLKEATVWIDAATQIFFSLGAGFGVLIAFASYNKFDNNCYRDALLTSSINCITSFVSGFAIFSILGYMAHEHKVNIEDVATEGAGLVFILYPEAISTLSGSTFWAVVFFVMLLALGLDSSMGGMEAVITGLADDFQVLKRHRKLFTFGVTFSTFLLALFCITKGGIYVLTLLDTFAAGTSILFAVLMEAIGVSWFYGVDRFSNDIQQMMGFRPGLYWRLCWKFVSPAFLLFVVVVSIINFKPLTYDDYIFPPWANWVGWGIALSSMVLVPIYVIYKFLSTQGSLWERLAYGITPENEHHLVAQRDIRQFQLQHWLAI

Test [1] deals with Sodium-dependent serotonin transporter (Homo sapiens, UniProt P31645).
The target in test [2] is Sodium-dependent noradrenaline transporter (Homo sapiens, UniProt P23975).

Counter-ions that a name gives are not always drawn.

In the case of `N[C@H]1CC[C@@H](c2ccc(Cl)c(Cl)c2)c2ccccc21`, the Ki in test [1] was 3 nM. On the same count and under the same terms, for `CCOc1ccccc1OCC1CNCCO1` (stereo unspecified) [2-(2-Ethoxy-phenoxymethyl)-morpholine(viloxazine)] the value was above 10000 nM. Compound `CC(NC(C)(C)C)C(=O)c1cccc(Cl)c1` (stereo unspecified) [BUPROPION HYDROCHLORIDE] returned a Ki in test [2] above 10 µM. `CC(CC1c2ccccc2CCc2ccccc21)CN(C)C` (stereo unspecified) [CAS_15686-37-0]: the affinity in test [1] corresponds to a Ki of 1360 nM. On to `CCc1nn(CCCN2CCN(c3cccc(Cl)c3)CC2)c(=O)n1CC` [NSC_40589], for which the Ki in test [1] came to 890 nM.

Compound `N[C@@H]1C[C@H]1c1ccccc1` [Tranylcypromine,(+)] yielded a Ki in test [1] above 10000 nM.

These data come from BindingDB's records for doi:10.1016/s0014-2999(97)01393-9 (Mayo Clinic, 1997).
